Experimental data: PMC10444810, “Induction of open-form bile canaliculus formation by hepatocytes for evaluation of biliary drug excretion” (Communications Biology, 2023)

Test system: icHep and PXB-cells monolayers

**Q.** For tetramethylrhodamine-dextran [TD4], which “permeability in the icHep monolayer compared to the control” value is on record?
**A.** decreased significantly

**Q.** What about the “permeation from the donor to receiver chambers” value of the same substance?
**A.** Minimal permeation
